Data reported in US8614168B2, “Use of azoles for increasing the abiotic stress resistance of plants or plant parts” (Monheim, priority 2008, dated 2013).

Test system: crop plants, for example oilseed rape
Assay: Stunting: mean plant height after azole application
Assay type: in vivo
Conditions: dosage 250 g/ha, comparative 11.7 cm
Excerpt: As already mentioned above, some azoles known from the prior art, which are recommended in combination with abscisic acid to increase plant resistance against abiotic stress (cf. WO2007/008580 A; diniconazole and uniconazole), lead to an undesirable degree of stunting in some crop plants, for example oilseed rape.
In the case of application of the inventive azoles, this stunting occurs to a lower or non-undesirable degree: […]

diniconazole
Mean plant height (cm): 6.7 cm
